Measurements: ChEMBL document CHEMBL3046763 (J Pestic Sci, 2000)

Tests used:
[1] = test system: Spodoptera litura; experiment: Insecticidal activity against Spodoptera litura assessed as mortality at 500 ppm by filter paper method
[2] = test system: Delphacodes; experiment: Insecticidal activity against Delphacodes striatellus assessed as mortality at 500 ppm by test tube method

## CCN(C(=O)OCC(C)C)P(C)(=S)Oc1ccc([N+](=O)[O-])c(C)c1 (configuration not stated)
[1]
  mortality: 100%
[2]
  mortality: 13%
